Common to all, as to format: cell-based, human
The subject of one test is LSMC spheroids. Kind of test: Immunoblotting of ECM and inflammation proteins in LSMC spheroids after inhibitor treatment. The conditions noted are these: Example 3, 48 hours, different concentrations. On the procedure:
(§1) Total protein isolated from paired tissue samples and MSMC and LSMC spheroids following treatment conditions was subjected to immunoblotting. Briefly, samples were suspended in RIPA buffer containing 1 mM EDTA and EGTA (Boston BioProducts, Ashland, MA) supplemented with 1 mM PMSF and a complete protease inhibitor mixture (Roche Diagnostics, Indianapolis, IN), sonicated, and centrifuged at 4° C. for 10 min at 14,000 rpm. The concentration of protein was determined using the BCA™ Protein Assay Kit (Thermo Scientific Pierce, Rockford, IL). Equal aliquots (thirty micrograms) of total protein for each sample was denatured with SDS-PAGE sample buffer and separated by electrophoresis on a SDS polyacrylamide gel. After transferring the samples to a nitrocellulose membrane, the membrane was blocked with TBS-Tween+5% milk and probed with the following primary antibodies: IDO1 (Cell Signaling Technology, Danvers, MA), TDO2, COL3A1 (Proteintech Group, Inc, Chicago, Illinois) and COL1A1 (Fitzgerald Industries Intl, Acton, MA). The membranes were washed with TBS containing 0.1% Tween-20 wash buffer after each antibody incubation cycle. SuperSignal West Pico Chemiluminescent Substrate™ (Thermo Scientific Pierce) was used for detection, and photographic emulsion was used to identify the protein bands, which were subsequently quantified by densitometry. The membranes were also stripped and probed with glyceraldehyde 3-phosphate dehydrogenase (GAPDH) antibody (Santa Cruz Biotechnology, Santa Cruz, CA) serving as the loading control. The densities of the specific protein bands were determined using image J program (imagej.nih.gov/ij/), normalized to GAPDH or a band obtained from staining the membrane with Ponceau S. Results were expressed as means±SEM as a ratio relative to the control group designated as 1.
(§2) Isolated MSMC and LSMC were plated in 6-well (1×10^5 cells/well) or 96-well (5×10^3 cells/well) plates which were coated with 0.5% agarose gel and incubated 48 hours for spheroids formation.

A further test concerns MSMC spheroids. Kind of test: Immunoblotting of COL1A1 and COL3A1 in MSMC spheroids after inhibitor treatment. The following applies: Example 3, 48 hours, different concentrations. The protocol:
as §1, §2
(A western blot detects proteins with antibodies after separation by electrophoresis.)

Test [1] deals with LSMC (leiomyoma smooth muscle cells) spheroids. Kind of test: Cell proliferation in LSMC spheroids, CellTiter-Glo 3D Cell Viability Assay. On the procedure: as §2
(§3) The concentrations of inhibitors used was based on earlier studies and the cell proliferation was determined using the CellTiter-Glo 3D Cell Viability Assay (Promega, Madison, WI) according to the manufacturer's protocol. The assay was performed in six replicates per condition and repeated four times using cells isolated from four different patients.

Test [2] deals with MSMC (myometrial smooth muscle cells) spheroids. Kind of test: Cell proliferation in MSMC spheroids, CellTiter-Glo 3D Cell Viability Assay. The protocol: as §2, §3
A general note: ATP-based viability assays read luminescence as a measure of living cells.

Setting [3] is: Example 3, various concentrations, 48 hours, n=4.

In the case of `NS(=O)(=O)NCCNc1nonc1/C(=N/O)Nc1ccc(F)c(Br)c1` [Epacadostat], the “expression of COL1A1” value is “but not” in the test on LSMC spheroids, “did not have any effect” with LSMC spheroids (listed as Epacodostat), “but not” in the test on MSMC spheroids and “did not have any effect” in the test on MSMC spheroids (listed as Epacodostat). The “expression of COL3A1” value with LSMC spheroids is reported as “but not”; with LSMC spheroids (listed as Epacodostat), “did not have any effect”; with MSMC spheroids, “but not”; in the test on MSMC spheroids (listed as Epacodostat), “did not have any effect”. The cell proliferation result in test [1] (Example 2) and in test [2] (Example 2) was “significantly suppressed” throughout. Also, the spheroids cell proliferation result in test [1] (setting [3]) and in test [2] (setting [3]) was “no effect” throughout.

Source of the values: patent US12122848B2, “Compositions and methods for treating fibroids” (THE LUNDQUIST INSTITUTE FOR BIOMEDICAL INNOVATION AT …, priority 2020, dated 2024).
